Experimental data from patent US20090111820A1, “FUSED PYRROLIDINE 1,2,4-TRIAZOLE DERIVATIVES AS MODULATORS OF MGLUR5” (priority 2007, published 2009).

Chains of the proteins cited; added tags and fusions are not shown. Residues count along the entry.
UniProt P41594, 21-942 isoform 3 limits assumed: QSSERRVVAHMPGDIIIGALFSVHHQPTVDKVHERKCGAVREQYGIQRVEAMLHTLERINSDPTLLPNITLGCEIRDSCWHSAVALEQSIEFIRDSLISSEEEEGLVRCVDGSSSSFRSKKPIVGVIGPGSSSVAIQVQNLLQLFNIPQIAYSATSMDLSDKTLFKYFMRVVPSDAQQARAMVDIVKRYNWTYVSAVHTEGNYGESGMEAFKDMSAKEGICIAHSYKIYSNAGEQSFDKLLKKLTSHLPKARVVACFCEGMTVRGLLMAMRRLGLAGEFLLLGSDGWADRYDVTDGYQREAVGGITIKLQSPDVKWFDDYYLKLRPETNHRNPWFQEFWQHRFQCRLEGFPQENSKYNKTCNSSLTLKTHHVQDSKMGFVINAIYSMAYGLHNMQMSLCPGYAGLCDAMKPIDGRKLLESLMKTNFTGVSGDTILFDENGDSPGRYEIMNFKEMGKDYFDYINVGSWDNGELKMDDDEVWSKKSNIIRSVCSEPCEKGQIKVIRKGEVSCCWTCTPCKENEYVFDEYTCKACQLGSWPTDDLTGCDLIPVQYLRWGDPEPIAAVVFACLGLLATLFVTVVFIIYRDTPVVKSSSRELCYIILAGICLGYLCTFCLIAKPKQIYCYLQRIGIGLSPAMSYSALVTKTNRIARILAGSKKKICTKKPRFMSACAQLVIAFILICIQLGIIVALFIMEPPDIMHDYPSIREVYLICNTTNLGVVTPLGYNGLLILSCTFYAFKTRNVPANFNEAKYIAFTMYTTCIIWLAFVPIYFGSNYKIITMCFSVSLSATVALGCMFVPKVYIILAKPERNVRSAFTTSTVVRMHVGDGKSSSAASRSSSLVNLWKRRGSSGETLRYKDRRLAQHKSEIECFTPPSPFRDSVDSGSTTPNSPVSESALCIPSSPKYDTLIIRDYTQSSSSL

Target: human mGluR5d (Homo sapiens, UniProt P41594)
Assay: FLIPR assay, mGluR5 antagonism (intracellular calcium mobilization)
Conditions: read-out: FLIPR hmGluR5d; cells expressing human mGluR5d; fluo-3 calcium signal
From the text: Functional Assessment of mGluR5 Antagonism in Cell Lines Expressing mGluR5D
The properties of the compounds of the invention can be analyzed using standard assays for pharmacological activity. Examples of glutamate receptor assays are well known in the art as described in for example Aramori et al., Neuron 8:757 (1992), Tanabe et al., Neuron 8:169 (1992), Miller et al., J. Neuroscience 15: 6103 (1995), Balazs, et al., J. Neurochemistry 69:151 (1997). The methodology described in these publications is incorporated herein by reference. […]
Cells expressing human mGluR5d as described in WO97/05252 cultured in a mixture of high glucose DMEM with Glutamax (31966-021) (500 mL), 10% dialyzed fetal bovine serum (Hyclone #SH30079.03) (56 mL), 200 μg/mL Hygromycin B (Invitrogen 45-0430, 50 mg/mL)(2.2 mL), 200 μg/mL Zeocin (Invitrogen #R250-01; 100 mg/mL)(1.1 mL) are seeded at a density of 100,000 cells per well on collagen coated clear bottom 96-well plates with black sides and cells were allowed to adhere over night before experiments. […] The fluorescence signal is sampled 50 times at 1-second intervals followed by 3 samples at 5-second intervals immediately after each of the two additions. Responses are measured as the difference between the peak heights of the response to agonist, less the background fluorescence within the sample period. […]

IC50: 0.033 µM
Structure (SMILES): Cn1c(-c2cc[nH]c(=O)c2)nnc1N1[C@@H](c2cc(-c3cccc(Cl)c3)on2)C[C@H]2C[C@H]21
